These results are taken from publication PMC12907944, “Targeting RAD51-BRCA2 Interaction to Enhance Synthetic Lethality with Olaparib in Pancreatic Cancer: Development of a Novel Phenyl Furan-Quinoline-Carboxylic Acid Series” (ACS Medicinal Chemistry Letters, 2026).

The nature of one series: kinetic solubility. Type of series: physicochemical. The conditions noted are these: PBS.
The subject of the next series is HeLa Kyoto cells. As to conditions: 50 μM, ref 4 (Scott DE et al); cited from earlier work.

In brackets after ≈: the same amount, converted by molar mass.

In turn, `COc1ccc([C@H](C)NC(=O)[C@@H]2C[C@@H](O)CN2C(=O)CNC(=O)c2ccc3cc(F)ccc3n2)c(Cl)c1` displayed a kinetic solubility in the series “kinetic solubility” of 171 ± 5 µM (≈ 90.5 µg/mL). For the same compound, the “% HR inhibition” value with HeLa Kyoto cells was over 90%.
